Data set [1] in a line: In vitro plasma stability in human FVIII deficient plasma (LC-MS). It is filed as in vitro ADME. As to conditions: for Degradation (%): human plasma, 37° C.; for degradation in human plasma: two hours of incubation at 37° C. As for the experimental part: The in vitro plasma stabilities for the compounds of the present disclosure were determined using a LC-MS method. Selected compounds were spiked into 120 μL of human FVIII deficient plasma (Siemens) to give a final concentration of 50 μg/mL. An aliquot of 20 μL was taken from the sample at time 0 as control. The remaining sample was incubated at 37° C. for 2 hrs. Additional aliquots of 20 μL were taken at time points 30 min, 1 hr, 2 hrs. All samples (20 μL aliquots) were treated immediately with 100 μL of cold 100% acetonitrile, vortexed for 10 min and centrifuged at 13000 rpm for 8 min. The 100 μL of supernant was transferred to a new vial and dried by speedvac and reconstituted with 100 μL of 20% acetonitrile and 0.1% formic acid. 90 μL of reconstituted sample was injected for LC-UV-MS/MS analysis. The MS was set at triple play with full scan, zoom scan and MS/MS scans with top five ions using dynamic exclusions. 5 μL of 10 μg/mL neat peptide in water was injected as a standard control. HPLC conditions: A. 0.1% FA in water; B. 0.1% formic acid in acetonitrile, column temperature 50° C.; flow rate 0.4 mL/min; 8 min run time with fast gradient. Samples were analyzed by LC-MS, and the data was reviewed to identify any breakdown products.

Sequences of proteins named here, by UniProt entry; tags and fusion partners are left off. Residues count along the entry.
UniProt P00740, 227-461 limits assumed: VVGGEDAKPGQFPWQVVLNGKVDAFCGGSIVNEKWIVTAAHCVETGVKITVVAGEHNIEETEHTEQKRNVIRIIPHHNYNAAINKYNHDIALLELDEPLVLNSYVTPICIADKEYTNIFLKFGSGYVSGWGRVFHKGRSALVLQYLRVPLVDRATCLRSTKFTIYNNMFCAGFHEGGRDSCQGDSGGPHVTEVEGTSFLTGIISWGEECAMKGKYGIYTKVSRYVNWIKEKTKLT
UniProt P00740, 47-191 limits assumed: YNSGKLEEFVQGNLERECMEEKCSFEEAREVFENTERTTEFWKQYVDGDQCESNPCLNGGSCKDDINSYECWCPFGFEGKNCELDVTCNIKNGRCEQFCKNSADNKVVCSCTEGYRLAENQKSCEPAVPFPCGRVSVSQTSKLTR
UniProt P16294, 237-471 limits assumed: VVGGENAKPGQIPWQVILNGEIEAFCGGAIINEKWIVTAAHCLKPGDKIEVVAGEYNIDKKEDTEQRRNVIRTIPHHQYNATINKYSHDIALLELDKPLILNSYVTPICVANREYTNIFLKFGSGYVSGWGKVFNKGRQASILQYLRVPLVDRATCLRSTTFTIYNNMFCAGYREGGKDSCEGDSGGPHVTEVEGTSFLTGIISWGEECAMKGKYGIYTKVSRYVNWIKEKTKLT
UniProt P16294, 47-192 limits assumed: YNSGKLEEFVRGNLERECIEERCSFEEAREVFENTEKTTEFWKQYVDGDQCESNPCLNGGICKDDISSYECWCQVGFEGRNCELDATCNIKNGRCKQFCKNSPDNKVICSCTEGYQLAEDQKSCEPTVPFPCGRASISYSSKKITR

Data set [2] concerns the target FIXa (Homo sapiens, UniProt P00740). The data set can be described thus: FXa generation assay with human FIXa. It counts as biochemical. The arrangement: purchased Haematologic Technologies.
Data set [3] is described as follows: Stability in mouse plasma. It counts as in vitro ADME. As to the method: Certain compounds of the present disclosure have limited chemical stability in plasma. […] However, compound 2 is stable in mouse plasma for at least 3 h.
Two degradation products were found for compound 1, which were identified using mass spectroscopy: • 1. […] (SEQ ID NO: 246) (m/z theoretical: 1204.50; found 1204.44) • 2. […] (SEQ ID NO: 245) (m/z theoretical: 1317.50; found 1317.60).

A short description of data set [4]: Whole blood stability. It counts as in vitro ADME. As for the experimental part:
Compound 5 was also stable in whole blood for at least 120 min.

Data set [5] addresses mouse FIXa (mFIXa) (Mus musculus, UniProt P16294). The data set can be described thus: FXa generation assay with mouse FIXa. It is filed as biochemical. As for the experimental part: The EC50 values for compound 1 in a FXa generation assay using either mouse FIXa (mFIXa) or human FIXa (hFIXa) were measured. […] The data confirms that the peptide was selected for binding to hFIXa.

[6] abbreviates: FXa generation assay using human FIXa, class symbols.
Setting [7] is: FXa generation assay, 10 nM hFIXa, 100 nM hFX, class symbols.

From patent US9486507B2, “Pro-coagulant compounds and methods of use thereof” (priority 2011, dated 2016) come the findings set out here.

The EC50 is the concentration needed to bring the measured effect to its halfway point. Read a high EC50 as lower potency in that assay. In the case of RRAPGKLQCLASYCWLFWTGIA [Compound 3], the “Degradation (%)” value in data set [1] (0 min) was 0.00%; in data set [1] (30 min), 64.72%; in data set [1] (60 min), 75.71%; in data set [1] (120 min) it was 85.26%. Moreover, the “degradation in human plasma” value in data set [1] is on record as “about 85%”. Besides, the EC50 was less than 500 nM in data set [2] (setting [6]), 115 nM in data set [2] (PL: No) and 125 nM in data set [2] (PL: Yes).
Turning to k-MeLeu-TCLASYCWLF [Compound 2], the EC50 turned out to be 200 nM in data set [2] (PL: No) and 230 nM in data set [2] (PL: Yes). In data set [3] (37° C.), the “time stable in mouse plasma” value was “at least 3 h”. For the same substance, the “degradation products in mouse plasma” value in data set [3] (incubation at 37° C. for 3 hours) is recorded as “no degradation products were detectable”.
Substance “PRIRTVGPGSRSASGKLTCLASYCWLFWTGIA [Compound 21]” came in with an EC50 in data set [2] (setting [7]) of less than 500 nM.
In the case of “PRIrTVGPGSrSASGKLTCLASYCWLFWTGIA [Compound 23]”, the “plasma stability relative to parent compound” value in data set [1] is recorded as “improved when compared to compound 21”. The substance further gave an EC50 in data set [2] (setting [7]) of less than 500 nM.
As for rRAPGKLTCLASYCWLFWTGIA [Compound 5], the “Degradation (%)” value in data set [1] (0 min), in data set [1] (30 min), in data set [1] (60 min) and in data set [1] (120 min) was 0.00% throughout. Further, the “degradation in human plasma” value in data set [1] was “no detectable degradation”. Also, the “time stable in whole blood” value in data set [4] is listed as “at least 120 min”. The substance further gave an EC50 in data set [2] (setting [7]) of less than 500 nM.
In data set [2] (setting [7]), RRAPGKLTCLASYCWLFWTGIA [Compound 4] showed an EC50 of less than 500 nM.
For KLTCLASYCWLF [Compound 1], the EC50 in data set [2] (D-amino acid scan of compound 1, FXa generation assay) is less than 500 nM; in data set [2] (setting [7]), less than 500 nM; in data set [2] (PL: No), 400 nM; in data set [2] (PL: Yes), 490 nM; in data set [2] (human FIXa (hFIXa), comparison with mouse FIXa) it was 300 nM; in data set [5], 440 nM. Moreover, the “degradation in mouse plasma” value in data set [3] (0.5 hours incubation, 37° C.) is on record as “significant degradation”.
Consider “PRIRTVGPGSRSASGKSTCLASYCWLFWTGIA [Compound 22]”, for which, in data set [2] (setting [7]), the EC50 lay in the range of 500 to 1000 nM.
Consider k-MeLeu-TCLASYCWLF, for which the EC50 in data set [2] (setting [6]) and in data set [2] (setting [7]) was less than 500 nM throughout.
Turning to “PRIrTVGPGSrSASGKSTCLASYCWLFWTGIA [Compound 24]”, the “plasma stability relative to parent compound” value in data set [1] is reported as “improved compared to the stability of compound 22”. In data set [2] (setting [7]), this substance returned an EC50 of less than 500 nM.
